## Binding of CDR-mutated scFvs to a peptide of the spike HR2 region

Values reported by Engelhart et al. 2022, doi:10.1038/s41597-022-01779-4 (FLAb copy).

Target peptide (SARS-CoV-2 spike, HR2 region): PDVDLGDISGINAS

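The parent was found by panning a naive human phage display library on the peptide. Library AAYL52 holds single substitutions and randomly drawn double and triple substitutions in the CDRs. AlphaSeq pools MATa yeast showing the antibodies with MATalpha yeast showing the peptide. Pairs that bind mate more often; barcode pairs of the diploids are counted by sequencing. Scores were corrected for input abundance and mapped to Kd with protein pairs of known affinity run in the same pool. Mating was done three times.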

Ab-95 is the parent antibody, in scFv form: VH, then a 15-residue (Gly4Ser)3 linker, then VL. The heavy chain is unchanged in all variants.
VH: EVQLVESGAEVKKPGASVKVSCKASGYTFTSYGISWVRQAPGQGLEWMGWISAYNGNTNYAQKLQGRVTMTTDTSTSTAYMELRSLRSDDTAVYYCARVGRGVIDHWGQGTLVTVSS
VL: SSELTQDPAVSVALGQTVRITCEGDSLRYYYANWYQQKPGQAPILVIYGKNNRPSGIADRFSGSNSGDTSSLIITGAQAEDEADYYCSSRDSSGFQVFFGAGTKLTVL

Changes read parent residue, position, new residue, counted from the first residue of the VL shown. Affinities are written as log10 Kd with Kd in nM; a lower number is a better binder. Averages over replicates are reported, and they cover detected replicates only. An entry "not detected" has no value in the source: the pair was not observed among the diploids in any replicate. This suggests poor binding but is not conclusive. The list is sorted by this average, lowest first, undetected variants last. Empty control strains, which show no peptide, gave a signal in 28% of pairings with library AAYL52; the median was 3.91 and 95% of these signals were weaker than 2.90. No background was subtracted. For reference, the parent read 2.31 as the reference entry and 2.25 as a member of this library.

changes	mean, log10 nM	replicates with signal
Y30R/S88N/S92E	1.03	3 of 3
Y30A/Y31D/F98R	1.23	3 of 3
Y31P/Q96R	1.40	3 of 3
Y29G/S55P/F95K	1.59	3 of 3
E23F/A32P	1.71	3 of 3
G24P/Y31N/P54S	1.76	3 of 3
E23V/P54M	2.02	3 of 3
E23Q/A32T/V97A	2.03	3 of 3
R90T/F95W	2.03	3 of 3
Y29Q/Y30E/R53T	2.04	3 of 3
R28N/D91K	2.10	3 of 3
D25H/K50E/S92C	2.21	3 of 3
E23T/S55I	2.26	3 of 3
A32S/S55E/R90D	2.27	3 of 3
K50N/F95D/V97M	2.43	3 of 3
Y30V/Y31P/N51F	2.45	3 of 3
G24L/R28P/F95Q	2.53	3 of 3
R28N/A32I/F95R	2.55	3 of 3
Y31R/P54N	2.59	3 of 3
N33D/S89N/D91T	2.69	1 of 3
E23Q/A32H/S93A	2.70	2 of 3
Y29F/G94Y/Q96R	2.71	3 of 3
N52H/F98I	2.73	2 of 3
N52S/R53H/V97C	2.81	3 of 3
R53G/D91W/V97A	2.81	2 of 3
Y30E/G49R/S55Y	2.85	2 of 3
R90P/V97Q/F98W	2.85	3 of 3
G24R/R28K/K50Y	2.86	3 of 3
D25F/S88Y/Q96K	2.87	3 of 3
G24S/D25A/R28D	2.87	3 of 3
A32T/Q96F/F98T	2.91	3 of 3
R53V/V97G/F98L	2.95	3 of 3
E23D/N33W/S55N	3.03	2 of 3
Y31A/R53W/S89N	3.06	3 of 3
R28S/Y29K/N33I	3.07	2 of 3
G24H/S55P/S93C	3.09	1 of 3
S26P/L27S/F95S	3.11	2 of 3
S26D/S89D	3.15	3 of 3
L27Q/R90C/G94P	3.21	1 of 3
E23T/G24H/S26V	3.30	1 of 3
E23I/N52G	3.34	3 of 3
G24E/A32V/R90T	3.36	1 of 3
E23Y/A32Q/D91W	3.37	1 of 3
R28P/S88R/S92Y	3.48	2 of 3
D91N/G94N/F95N	3.51	1 of 3
E23H/K50C	3.53	3 of 3
R28P/P54K/Q96C	3.55	3 of 3
L27D/A32I/S89T	3.60	3 of 3
G24V/Y29G/F98C	3.64	1 of 3
G24F/F95H	3.64	3 of 3
L27P/N52H/S88Y	3.66	2 of 3
V97F/F98V	3.70	3 of 3
G24F/G49C/S93N	3.79	1 of 3
A32Q/N51P/F98I	3.83	1 of 3
G24D/G94E	3.83	3 of 3
N51Y/D91K/S92M	3.85	3 of 3
G24T/K50A/S92N	3.87	2 of 3
K50G/N52E/Q96W	3.95	3 of 3
E23V/S92P/V97Y	4.00	3 of 3
G49F/N51L/S88M	4.00	1 of 3
A32R/P54D/R90M	4.02	2 of 3
Y31D/G49V/N52S	4.03	1 of 3
E23G/N33C/F95K	4.07	2 of 3
S26R/D91Q/S93H	4.23	2 of 3
D25Y/A32K/F98R	4.26	3 of 3
N33S/R53D/F98C	4.30	1 of 3
A32H/F95D	4.31	3 of 3
L27G/Y29V/S55A	4.40	2 of 3
Y29T/R53M/S93Q	4.55	1 of 3
S26H/R28V/S93L	4.61	1 of 3
G49F/V97G	5.19	2 of 3
G49C/R53F/S93N	not detected	0 of 3
Y31I/G49Y	not detected	0 of 3
N33Y/G49S/S92Y	not detected	0 of 3
L27I/N33W/Q96D	not detected	0 of 3
N33Q/P54Y/F98I	not detected	0 of 3
G24E/S88E/S89Y	not detected	0 of 3
G24E/R53K/S92M	not detected	0 of 3
P54G/S92A/G94F	not detected	0 of 3
L27E/K50V/S89N	not detected	0 of 3

9 of these entries, quoted again:

| changes | mean, log10 nM | replicates with signal |
|---|---|---|
| R28P/P54K/Q96C | 3.55 | 3 of 3 |
| G24S/D25A/R28D | 2.87 | 3 of 3 |
| Y29T/R53M/S93Q | 4.55 | 1 of 3 |
| Y30A/Y31D/F98R | 1.23 | 3 of 3 |
| R28S/Y29K/N33I | 3.07 | 2 of 3 |
| R53V/V97G/F98L | 2.95 | 3 of 3 |
| Y31I/G49Y | not detected | 0 of 3 |
| E23F/A32P | 1.71 | 3 of 3 |
| G24E/S88E/S89Y | not detected | 0 of 3 |